# Reference: patent US5502037A, “Pro-cytotoxic drug conjugates for anticancer therapy” (priority 1993, dated 1996)
# Tested on: PC12 pheochromocytoma cells
# Settings: HMDA 200 nM and 1 μM
smiles,measurement,value
"NCCCCCCN [HMDA, hexamethylenediamine]",cytotoxicity effects of HMDA alone,negligible
